Assay results from ChEMBL document CHEMBL1781933, “Neurosteroid analogues. 16. A new explanation for the lack of anesthetic effects of δ(16)-alphaxalone and identification of a δ(17(20)) analogue with potent anesthetic activity” (J Med Chem, 2011).

Columns and labels:
Format in all cases: cell-based
Oocyte [1] = test: Activity at rat GABA-A receptor alpha1beta2gamma2L expressed in Xenopus oocytes assessed as potentiation of GABA-induced chloride current at 0.1 uM by electrophysiological Method relative to control
In short: (§1)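 Oocytes expressing rat α1β2γ2L GABA-A receptors were recorded whole-cell. Compound at 0.1, 1 or 10 µM was co-applied with 2 µM GABA. Response is the current ratio with/without compound. At least four different oocytes per concentration; mean ± SEM.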

Oocyte [2] = test: Activity at rat GABA-A receptor alpha1beta2gamma2L expressed in Xenopus oocytes assessed as potentiation of GABA-induced chloride current at 1 uM by electrophysiological Method relative to control; in short: as §1
Oocyte [3] = test: Activity at rat GABA-A receptor alpha1beta2gamma2L expressed in Xenopus oocytes assessed as potentiation of GABA-induced chloride current at 10 uM by electrophysiological Method relative to control; in short: as §1
Oocyte [4] = test: Activity at rat GABA-A receptor alpha1beta2gamma2L expressed in Xenopus oocytes assessed as increase in chloride current at 10 uM by electrophysiological Method relative to GABA
In short: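 Direct gating measured without GABA. Current evoked by 10 µM steroid applied alone to oocytes expressing rat α1β2γ2L GABA-A receptors, expressed as a ratio to the current evoked by 2 µM GABA. Whole-cell recording. At least four oocytes per compound; mean ± SEM.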

| SMILES | fold change (FC) (Oocyte [1]) | fold change (FC) (Oocyte [2]) | fold change (FC) (Oocyte [3]) | fold change (FC) (Oocyte [4]) |
| --- | --- | --- | --- | --- |
| C[C@]12CC[C@@H](O)C[C@@H]1CC[C@@H]1[C@@H]2C(=O)C[C@]2(C)/C(=C\C#N)CC[C@@H]12 | 1.17 | 5.06 | 21.5 | 0.17 |
| C[C@]12CC[C@@H](O)C[C@@H]1CC[C@@H]1[C@@H]2C(=O)C[C@]2(C)/C(=C/C#N)CC[C@@H]12 | 0.79 | 0.77 | 1.82 | 0.02 |
